From patent US20240368122A1, “JAK2 INHIBITORS AND METHODS OF USE THEREOF” (RELAY THERAPEUTICS, INC., priority 2021, published 2024) come the findings set out here.

Amino acid sequences for entries named in this document (tags omitted). Residues count along the entry.
UniProt O60674, 536-812 W659A/W777A/F794H limits assumed: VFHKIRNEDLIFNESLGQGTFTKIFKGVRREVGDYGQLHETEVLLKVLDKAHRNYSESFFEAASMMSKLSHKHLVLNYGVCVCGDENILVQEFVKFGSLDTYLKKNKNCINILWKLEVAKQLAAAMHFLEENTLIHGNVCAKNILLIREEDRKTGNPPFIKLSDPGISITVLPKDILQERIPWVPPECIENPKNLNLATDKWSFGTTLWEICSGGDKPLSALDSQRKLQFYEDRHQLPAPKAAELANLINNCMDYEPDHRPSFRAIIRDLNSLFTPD

SMILES strings stand for the structures. pIC50, pKd: −log10 of the molar value.

Experiment [1] deals with TF1 JAK2 V617F STAT3 reporter. As to the kind of experiment: Cellular TF1 STAT3 assay (luciferase reporter), JAK2 V617F. The conditions noted are these: read-out: Cell PD-TF1 JAK2 V617F STAT3 (IC50), TF1 cells.
Experiment [2] has as its system TF1 JAK2 V617F STAT5 reporter. As to the kind of experiment: Cellular TF1 STAT5 assay (luciferase reporter), JAK2 V617F. The conditions noted are these: read-out: Cell PD TF1 V617F STAT5 (IC50), TF1 cells.
Experiment [3] addresses JAK2 JH2 WT (V536-D812) [W659A, W777A, F794H solubilizing mutations] (Homo sapiens, UniProt O60674, F794H/W659A/W777A). Description: Surface Plasmon Resonance (SPR) binding assay, JAK2 JH2 domain. The conditions noted are these: read-out: SPR JAK2 JH2 KD.

For `CNC(=O)c1nnc(NC(=O)C2CC2)cc1Nc1cccc(-c2cnn(C3CC(N(C)c4ccccn4)C3)c2)c1OC` (stereo not drawn), the pIC50 in experiment [1] and in experiment [2] was 5.30 to 6.30 each time. For the same compound, the pKd in experiment [3] was 8.00 to 11.00.
